Sequences of proteins named here, by UniProt entry; tags and fusion partners are left off. Residues count along the entry.
UniProt P09874, 2-1014 L713F: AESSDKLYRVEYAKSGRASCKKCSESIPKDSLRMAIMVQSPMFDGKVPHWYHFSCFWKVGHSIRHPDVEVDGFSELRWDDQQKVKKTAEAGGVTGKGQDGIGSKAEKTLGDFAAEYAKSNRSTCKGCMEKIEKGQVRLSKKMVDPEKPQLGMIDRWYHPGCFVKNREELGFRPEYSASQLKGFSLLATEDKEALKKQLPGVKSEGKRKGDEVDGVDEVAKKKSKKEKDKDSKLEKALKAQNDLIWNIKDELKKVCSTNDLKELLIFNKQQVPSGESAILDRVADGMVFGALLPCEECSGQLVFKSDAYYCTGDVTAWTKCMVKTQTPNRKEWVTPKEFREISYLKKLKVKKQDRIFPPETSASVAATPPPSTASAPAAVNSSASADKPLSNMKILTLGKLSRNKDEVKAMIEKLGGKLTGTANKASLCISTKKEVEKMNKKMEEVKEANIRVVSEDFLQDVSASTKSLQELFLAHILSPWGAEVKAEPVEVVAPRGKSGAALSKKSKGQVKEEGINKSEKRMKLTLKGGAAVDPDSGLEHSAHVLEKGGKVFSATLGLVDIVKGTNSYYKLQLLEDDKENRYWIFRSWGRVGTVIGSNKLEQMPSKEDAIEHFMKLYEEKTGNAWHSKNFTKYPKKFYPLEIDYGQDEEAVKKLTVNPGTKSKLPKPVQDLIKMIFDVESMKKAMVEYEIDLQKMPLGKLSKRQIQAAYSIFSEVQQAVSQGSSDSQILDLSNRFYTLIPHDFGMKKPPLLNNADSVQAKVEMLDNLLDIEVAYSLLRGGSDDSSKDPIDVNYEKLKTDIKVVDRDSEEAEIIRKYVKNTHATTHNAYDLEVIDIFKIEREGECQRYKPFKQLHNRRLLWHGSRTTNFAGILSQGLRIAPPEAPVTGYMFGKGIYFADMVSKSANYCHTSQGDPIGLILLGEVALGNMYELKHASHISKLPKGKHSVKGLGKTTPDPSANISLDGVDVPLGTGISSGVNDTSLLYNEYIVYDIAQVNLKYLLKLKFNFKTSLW

In paper PMC11624193, “Coupling cellular drug-target engagement to downstream pharmacology with CeTEAM” (Nature Communications, 2024):

Biological target: PARP1 (Homo sapiens, UniProt P09874, L713F)

Structure (SMILES): Cn1ncnc1[C@H]1c2n[nH]c(=O)c3cc(F)cc(c23)N[C@@H]1c1ccc(F)cc1 [talazoparib]
- EC50: Notably, talazoparib was the most potent binder and trapper followed by olaparib and niraparib
